# Measured values reported in patent publication US20260234147A1 (priority 2023, published 2026).
# Chains of the proteins cited; added tags and fusions are not shown.
# UniProt P41143, whole entry: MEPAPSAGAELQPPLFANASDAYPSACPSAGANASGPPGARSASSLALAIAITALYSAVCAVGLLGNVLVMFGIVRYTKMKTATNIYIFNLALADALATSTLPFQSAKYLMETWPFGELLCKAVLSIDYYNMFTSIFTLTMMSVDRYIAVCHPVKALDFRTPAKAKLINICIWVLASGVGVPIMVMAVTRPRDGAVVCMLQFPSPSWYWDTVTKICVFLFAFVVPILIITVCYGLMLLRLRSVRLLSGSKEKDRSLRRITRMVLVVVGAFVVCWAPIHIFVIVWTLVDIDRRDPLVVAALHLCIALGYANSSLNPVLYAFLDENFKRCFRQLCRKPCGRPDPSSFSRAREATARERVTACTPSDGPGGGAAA
# Biological target: hDOR (Homo sapiens, UniProt P41143)
# Assay: Radioligand binding assay (Eurofins Cerep), [3H]DADLE displacement
# Conditions: DOR Ki ± SEM (nM)
compound,measurement,value
"C[C@@H](NC(=O)[C@@H](N)Cc1ccc(O)cc1)C(=O)NCC(=O)N(C)[C@@H](Cc1ccccc1)C(=O)NCCO [DAMGO, reference compound]",Ki,655 nM
